Consider one compound from patent US20260108686A1 (Belhaven BioPharma Inc., priority 2024, published 2026).

A short description of the data set: Study 101, plasma epinephrine pharmacokinetics. It is filed as in vivo, human. Further details: unit not given beside the values. As to conditions: 0.5 mg IM. On the procedure: Each patient was provided each treatment of the trial with 72-hour washout periods between each treatment, beginning with a 3.5 mg intranasal dose, followed by a 0.3 mg intramuscular dose, followed by a 0.5 mg intramuscular dose, and concluding with a 5.5 mg intranasal dose, with a safety follow-up performed 3 to 5 days after the final dose was administered. The primary endpoints of the study were pharmacokinetic measurements and assessments of comparative bioavailability, while the secondary endpoints were safety concerns and pharmacodynamic assessments.

In the case of `CNC[C@H](O)c1ccc(O)c(O)c1` [Epinephrine IM, epinephrine], the “Cmax (GeoMean)” value was found to be 382.3.
